The record followed here is publication PMC7360964, “Auto‐inhibition of Mif2/CENP‐C ensures centromere‐dependent kinetochore assembly in budding yeast” (The EMBO Journal, 2020).

The target of test [1] is T1, Mtw1‐Nnf1 heterodimer (MN) (Saccharomyces cerevisiae, UniProt P39731+P47149).
T1 construct: made in house; host or cells: E. coli BL21 (DE3)
T1 sequence (P39731 1-289): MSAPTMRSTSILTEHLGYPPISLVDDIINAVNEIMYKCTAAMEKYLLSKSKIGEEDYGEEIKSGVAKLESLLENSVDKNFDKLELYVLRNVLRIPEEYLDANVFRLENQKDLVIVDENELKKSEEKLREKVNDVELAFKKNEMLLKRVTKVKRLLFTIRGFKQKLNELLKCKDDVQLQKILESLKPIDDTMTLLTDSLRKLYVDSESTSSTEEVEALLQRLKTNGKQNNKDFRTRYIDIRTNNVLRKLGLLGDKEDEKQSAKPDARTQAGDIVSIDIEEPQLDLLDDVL
T1 sequence (P47149 1-201): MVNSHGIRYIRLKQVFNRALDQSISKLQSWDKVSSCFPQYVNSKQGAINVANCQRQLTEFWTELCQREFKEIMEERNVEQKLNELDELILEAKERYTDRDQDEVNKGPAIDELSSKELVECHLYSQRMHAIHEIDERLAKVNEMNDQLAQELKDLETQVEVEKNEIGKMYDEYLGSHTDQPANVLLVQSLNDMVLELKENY
Briefly: FP competition of FITC-Mif2 1-41/MN by unlabeled Ame1 peptide. It counts as binding, budding yeast (S. cerevisiae). The settings on record: FITC-Mif2 and MN pre-incubated at EC50, unlabeled Ame1 peptide.

In test [2] the target is T2, MN (Saccharomyces cerevisiae, UniProt P39731+P47149).
T2 construct: made in house; host or cells: E. coli BL21 (DE3)
T2 sequence (P39731 1-289): T1 sequence (P39731 1-289)
T2 sequence (P47149 1-201): T1 sequence (P47149 1-201)
Nature of the test: Isothermal titration calorimetry (ITC) with MN. It counts as binding, budding yeast (S. cerevisiae). The settings on record: summary of FP and ITC assays. The text has this: Figure 5 The Mif2 N‐terminus is prevented from high‐affinity Mtw1c binding in the full‐length molecule • Co‐purification of Strep‐Mtw1c through Flag‐Mif2 after co‐expression in insect cells. Proteins were detected by Western blotting using their respective tags. • Western blotting of elution fractions from an SEC experiment of Mif2‐wt or Mif2^Ame1‐N swap in the absence (upper panel) or presence (lower panel) of Mtw1c. • ITC analysis of Mif2^1‐41 or Ame1^1‐20 binding to MN. Experiments were performed 3 or 4 times, respectively. One representative binding curve is shown, whereas the KD value represents the average of all experiments. • Cross‐link (XL) MS analysis of the Mif2wt protein in isolation or bound to Cse4n using the cross‐linker Bis[sulfosuccinimidyl] glutarate. Mif2wt alone or in combination with Cse4n was subjected to analytical size‐exclusion chromatography at 10 μM concentration. The corresponding Coomassie‐stained SDS–PAGE gels of Mif2‐wt alone or in combination with Cse4n are shown. Fractions used for cross‐linking are highlighted. […]
The binding constant of Ame1 could only be indirectly measured in the FP competition assay, as labeling of Ame1 N‐terminal peptides rendered them insoluble. We therefore directly determined binding affinities of Mif2 and Ame1 N‐terminal peptides to MN using isothermal titration calorimetry (ITC). […]
A general note: In ITC the heat of successive injections is recorded.

Test [3] deals with T1, Mtw1‐Nnf1 heterodimer (MN). Nature of the test: GST pulldown (solid-phase) competition: MN binding to GST-Mif2 1-41 or GST-Ame1 1-30 with Ame1 1-20 peptide. More on the design: species or system budding yeast (S. cerevisiae).

For the molecule `CSCC[C@H](N)C(=O)N[C@@H](CC(=O)O)C(=O)N[C@@H](CCCNC(=N)N)C(=O)N[C@@H](CC(=O)O)C(=O)N[C@H](C(=O)N[C@@H](CCCCN)C(=O)N[C@@H](CC(C)C)C(=O)N[C@@H](C)C(=O)N[C@@H](Cc1ccccc1)C(=O)N[C@@H](CCCNC(=N)N)C(=O)N[C@@H](CC(C)C)C(=O)N[C@@H](CCCNC(=N)N)C(=O)NCC(=O)N[C@@H](CO)C(=O)N[C@@H](Cc1c[nH]cn1)C(=O)N[C@@H](CO)C(=O)N[C@@H](CCCNC(=N)N)C(=O)N[C@@H](CCCNC(=N)N)C(=O)N[C@H](C(=O)N[C@@H](CC(=O)O)C(=O)O)[C@@H](C)O)[C@@H](C)O` [Ame1^1‐20], in test [1], the “competition of Mif2-N binding to MN, FP” value was “effective competition”. Also, the “dissociation constants for Mtw1 constructs” value in test [2] is recorded as “low micromolar range”. Moreover, the “inhibition of MN binding to GST-Mif2-N” value in test [3] (bait 1 μM, MN 3 μM, increasing Ame1 1-20, 1 h at 4°C, pH 7.5, 200 mM NaCl, Coomassie SDS-PAGE) is given as “able to inhibit binding of MN to GST‐Mif2‐N in a dose‐dependent manner”. Moreover, the “competition with GST-Ame1N for MN binding” value in test [3] (free Ame1 peptide, Fig 2A lane 2 versus 3) is listed as “not very efficiently competing”.
